Data published in patent US9403797B2, “5-(pyridin-2-yl-amino)-pyrazine-2-carbonitrile compounds and their therapeutic use” (Cancer Research Technology Limited, priority 2011, dated 2016).

Amino acid sequences for entries named in this document (tags omitted). A change or cut given only in a name is not applied to a line headed by its entry.
UniProt O14757: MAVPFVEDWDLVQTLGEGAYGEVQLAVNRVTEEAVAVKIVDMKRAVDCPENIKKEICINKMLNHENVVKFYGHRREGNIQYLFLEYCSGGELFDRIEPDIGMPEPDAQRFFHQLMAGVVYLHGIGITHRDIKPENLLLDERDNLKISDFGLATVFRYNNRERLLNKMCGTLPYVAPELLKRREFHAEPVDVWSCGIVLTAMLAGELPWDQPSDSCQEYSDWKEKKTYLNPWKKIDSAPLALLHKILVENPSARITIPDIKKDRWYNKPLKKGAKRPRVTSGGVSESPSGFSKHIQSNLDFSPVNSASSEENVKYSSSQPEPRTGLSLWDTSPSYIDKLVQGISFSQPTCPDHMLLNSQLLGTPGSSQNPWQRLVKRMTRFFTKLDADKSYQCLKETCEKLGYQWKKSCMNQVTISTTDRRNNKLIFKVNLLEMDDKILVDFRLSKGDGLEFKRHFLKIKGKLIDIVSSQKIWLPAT

Target: CHK1 (Homo sapiens (Human), UniProt O14757)
Experiment: Inhibitor potency vs. CHK1 (Assay 1A DELFIA or Assay 1B Caliper format)
Type: biochemical
Protocol: Assay 1A: Determination of Inhibitor Potency vs. CHK1 in DELFIA Assay Format
CHK1 kinase function was measured in a DELFIA® assay in order to monitor phosphorylation of a CDC25C peptide using a specific phospho antibody. […] The reaction mixture was incubated for 30 minutes at room temperature and then stopped by the addition of buffer (125 μL) containing 40 mM EDTA, 0.05% Tween 20, 0.1% BSA in TBS (10× concentrate, Sigma). An aliquot (100 μL) of the stopped reaction mixture was transferred to a black neutravidin-coated plate (Perbio) and incubated for 1 hour on a shaker (Titertek, Flow Laboratories) at room temperature. […] The plates were washed a further four times with wash buffer before the addition of enhancement solution (100 μL/well, PerkinElmer Life Sciences).
Assay 1B: Determination of Inhibitor Potency Vs. CHK1 in Caliper Assay Format
CHK1 kinase activity was measured in a microfluidic assay that monitors the separation of a phosphorylated product from its substrate. […] For each test compound a 50 μM stock concentration in 100% DMSO was used. […] The plate was sealed and centrifuged (1 minutes, 1000 rpm) before incubation for one hour at room temperature. The reaction was stopped by the addition of separation buffer (90 μL). […] IC50 values were calculated in GraphPad Prism5 using a non linear regression fit of the log (inhibitor) vs. response with variable slope equation.

SMILES	IC50
CNc1cc(Nc2cnc(C#N)c(O[C@@H]3CCNC3)n2)ncc1-c1cnn(C)c1 [PAPC-B-03, (R)-5-((5-(1-Methyl-1H-pyrazol-4-yl)-4-(methylamino)pyridin-2-yl)amino)-3-(pyrrolidin-3-yloxy)pyrazine-2-carbonitrile]	< 20 nM
CNc1cc(Nc2cnc(C#N)c(O[C@H]3CCNC3)n2)ncc1-c1cnn(C)c1 [PAPC-B-04, (S)-5-((5-(1-Methyl-1H-pyrazol-4-yl)-4-(methylamino)pyridin-2-yl)amino)-3-(pyrrolidin-3-yloxy)pyrazine-2-carbonitrile]	< 20 nM
